The record followed here is patent US20220363718A1 (Bicycle, published 2022).

Chains of the proteins cited; added tags and fusions are not shown. Chains listed by the source or under a name are the forms on record and can include a tag or linker.
Biotinylated human TSLP, one chain, as listed by the source limits assumed: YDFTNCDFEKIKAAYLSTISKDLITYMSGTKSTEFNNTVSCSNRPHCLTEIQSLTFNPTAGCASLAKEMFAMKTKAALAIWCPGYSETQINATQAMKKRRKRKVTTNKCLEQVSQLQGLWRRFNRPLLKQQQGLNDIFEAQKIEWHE

For experiment [1], the target named is T1, Biotinylated human TSLP (human, biotinylated).
T1 construct: also called hTSLP; thymic stromal lymphopoietin
Kind of experiment: SPR, biotinylated hTSLP on streptavidin chip.

The target of experiment [2] is T2, Biotinylated human TSLP (hTSLP(29-159)-Avi) (human, biotinylated (C-terminal Avi-tag)).
T2 construct: also called thymic stromal lymphopoietin
Kind of experiment: SPR, biotinylated hTSLP on streptavidin chip, peptide injected. For orientation: In SPR one partner is held on a chip, and binding of the other changes the refractive index at the surface.

One may read the Kd as a measure of binding affinity in units of concentration. Read a high Kd as lower affinity. DPPKPRCQWLEDCWRGFCA (3 Cys on TATA) [Example 87] returned a Kd in experiment [1] of 120 nM.

For SPTCLWLDDCWRGFCA (3 Cys on TATA) [Example 85], in experiment [1], the affinity, expressed as Kd, was 120 nM.

Turning to EVDTYPCRDLDPWTCSSWWLCA (3 Cys on TATA) [Example 192], binding in experiment [1] was characterised by a dissociation constant (Kd) of 84 nM.

Molecule HPNCDWLDDCWRGFCA (3 Cys on TATA) [Example 98] displayed a Kd in experiment [1] of 150 nM.

For CDWHWEYDCWLSCAPDHLP (3 Cys cyclised with TATA) [Example 224], the Kd in experiment [2] was found to be 66 nM.

The molecule GNIKKSCDWHWEYDCWLSCA (3 Cys cyclised with TATA) [Example 211] displayed a Kd in experiment [2] of 140 nM.

Molecule DDEIMQCQWLEDCWRGFCA (3 Cys on TATA) [Example 64] yielded a Kd in experiment [1] of 69 nM.

In turn, CQWLEDCWRGWC (N-term acetyl; 3 Cys on TATA) [Example 140] had a Kd in experiment [1] of 550 nM.

In the case of ACRDLDPWTCSSWWLCANV (3 Cys on TATA) [Example 186], the affinity in experiment [1], expressed as Kd, was 66 nM.

On to YGACVDLDPWTCEQWWLCA (3 Cys on TATA) [Example 166], for which, in experiment [1], the Kd is 120 nM.

As for SEAQETCDWHWEYDCWLSC (3 Cys cyclised with TATA) [Example 214], in experiment [2], the Kd was 71 nM.

Take KDNRVDCRDLDPWTCSSWWLCA (3 Cys on TATA) [Example 172]: the Kd in experiment [1] stood at 140 nM.

Molecule ACDWHWEYDCWLSCEPETGQA (3 Cys cyclised with TATA) [Example 221] showed a Kd in experiment [2] of 89 nM.

In experiment [2], ACDWHWEYDCWLSCYDNEMSA (3 Cys cyclised with TATA) [Example 213] showed a Kd of 120 nM.

Regarding ACDWNWSYDCWLPCANT (3 Cys cyclised with TATA) [Example 207], the Kd in experiment [2] was 140 nM.

Regarding ACDWQWEYDCWLSCDPN (3 Cys cyclised with TATA) [Example 205], in experiment [2], the Kd stood at 150 nM.

With DNHCHWLDDCWRGFCA (3 Cys on TATA) [Example 97], binding in experiment [1] was characterised by a dissociation constant (Kd) of 150 nM.

Regarding CDWHWEYDCWLSCDPSSKQ (3 Cys cyclised with TATA) [Example 226], binding in experiment [2] was put at a Kd of 76 nM.

B1: Example 219 (peptide)
peptide: CDWHWEYDCWLSC
modifications: N-terminal group R^7 (shown only as drawing CHEM-US-00008); 3 Cys cyclised with TATA
Molecule B1 gave a Kd in experiment [2] of 550 nM.

The molecule ERNCIWDWKYDCWLGCA (3 Cys cyclised with TATA) [Example 225] yielded a Kd in experiment [2] of 71 nM.
